Assay [1] addresses T1, adenosine receptor 2A (A2A) (Homo sapiens, UniProt P29274). Put plainly: Functional antagonist assay monitoring cAMP (CEREP).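 Further: eight-point concentration-response from 0 to 10 µM.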 To be noted: concentration-response up to 10 μM.
Assay [2] deals with T1, adenosine receptor 2A (A2A). Put plainly: Competition binding assay using radioactive ligands (CEREP).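 Further: compounds screened at a single fixed 10 µM concentration for displacement of a radioligand.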 To be noted: fixed compound concentration of 10 μM.

As for `CNC(=O)c1cnn(-c2nc(N)c3ncn([C@@H]4O[C@H](CO)[C@@H](O)[C@H]4O)c3n2)c1` [Regadenoson], in assay [1], the “IC50, cAMP, M” value is recorded as “N.E. (N.E., no effects. Results showing an inhibition or stimulation lower than 50% are considered to represent insignificant effects of the test compounds.)”. In addition, the “%inhibition, binding” value in assay [2] is listed as 97%.

Values taken from paper PMC6317804, “The integration of pharmacophore-based 3D QSAR modeling and virtual screening in safety profiling: A case study to identify antagonistic activities against adenosine receptor, A2A, using 1,897 known drugs” (PLoS ONE, 2019).
